SMILES strings stand for the structures. pIC50: −log10 of the molar value.

The chains behind the UniProt entries cited, without tags or fusion partners.
UniProt P02550, whole entry: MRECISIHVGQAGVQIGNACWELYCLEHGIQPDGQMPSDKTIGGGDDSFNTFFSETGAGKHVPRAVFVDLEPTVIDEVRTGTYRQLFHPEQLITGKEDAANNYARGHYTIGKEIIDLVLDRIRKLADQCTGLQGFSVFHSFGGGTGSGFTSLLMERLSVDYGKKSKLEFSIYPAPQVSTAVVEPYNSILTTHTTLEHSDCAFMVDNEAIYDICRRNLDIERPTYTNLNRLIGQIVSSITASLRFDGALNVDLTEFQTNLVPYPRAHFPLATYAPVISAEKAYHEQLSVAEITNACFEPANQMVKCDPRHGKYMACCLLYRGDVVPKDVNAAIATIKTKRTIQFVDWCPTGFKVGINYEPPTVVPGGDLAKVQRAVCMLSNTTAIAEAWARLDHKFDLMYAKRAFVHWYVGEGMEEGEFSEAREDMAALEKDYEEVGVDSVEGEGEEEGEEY
UniProt P02554, whole entry: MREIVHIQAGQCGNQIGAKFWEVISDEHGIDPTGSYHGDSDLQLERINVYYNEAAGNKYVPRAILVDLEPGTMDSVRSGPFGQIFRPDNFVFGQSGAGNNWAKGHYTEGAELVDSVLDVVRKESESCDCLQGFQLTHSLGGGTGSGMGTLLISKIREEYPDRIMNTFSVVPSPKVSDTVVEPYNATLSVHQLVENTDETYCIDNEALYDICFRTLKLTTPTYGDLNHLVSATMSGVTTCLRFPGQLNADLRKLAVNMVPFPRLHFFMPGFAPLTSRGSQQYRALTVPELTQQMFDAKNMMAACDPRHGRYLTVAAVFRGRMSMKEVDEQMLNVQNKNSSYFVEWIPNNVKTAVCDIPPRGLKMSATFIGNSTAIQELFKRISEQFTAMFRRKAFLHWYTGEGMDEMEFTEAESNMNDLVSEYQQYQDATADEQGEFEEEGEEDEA

This is an account of results in patent US20050014765A1, “Aryl-heteroaromatic products, compositions comprising them and use” (Aventis Pharma S.A., priority 2003, published 2005).

The subject of one assay is HCT116 cells. As to the kind of experiment: Inhibition of proliferation of the HCT116 human colon tumor line ([14C]-thymidine incorporation). The conditions noted are these: read-out: Inhibition of HCT116 proliferation IC 50, 48 hours incubation at 37° C. Here is the method:
Test for Determining the Inhibition of Proliferation of the HCT116 Human Colon Tumor Line
The proliferation of HCT116 cells is evaluated by mesuring the incorporation of [^14C]-thymidine in the following way. The HCT166 cells (from the ATCC) are cultured in a DMEM medium (Gibco) which contains 10% of fetal calf serum and antibiotics (1% penicillin, 1% streptomycin). To perform the proliferation test, the cells are seeded into 96-well cytostar microplates (Amersham) at the rate of 5000 cells per well. The [^14C]-thymidine (0.1 μCi/well) and the products to be evaluated are subsequently added. Variable concentrations of products up to 10 μM are used; the DMSO (solvent used to dissolve the products) should not exceed 0.5% in the medium. 48 hours after incubation at 37° C., the radioactivity incorporated into the cells is measured by counting the plate in a Tri-Lux counter (Wallac). The IC50 is defined as the concentration of product which reduces the radioactivity by 50% compared with an untreated control. A product with an IC50 of less than 10 μm is regarded as cytotoxic.
A general note: Uptake of a labelled nucleoside into DNA is a usual measure of proliferation.

In assay [1] the target is Tubulin purified from pig brains (Sus scrofa, UniProt P02550+P02554). As to the kind of experiment: Assessment of the inhibition of tubulin polymerization (turbidimetry at 350 nm). The conditions noted are these: read-out: Inhibition of tubulin polymerization IC 50; concentration which inhibits the rate of polymerization by 50%; tubulin 1 mg/ml, 37° C. As to the method: Assessment of the Inhibition of Tubulin Polymerization
Tubulin is purified from pig brains according to published methods (Shelanski et al., 1973, Proc. Natl. Acad. Sci. USA, 70, 765-768. Weingarten et al., 1975, Proc. Natl. Acad. Sci. USA, 72, 1858-1862). Briefly, the brains are ground and centrifuged in an extraction buffer. The tubulin, present in the extract supernatant is subjected to two successive cycles of polymerization at 37° C. and depolymerization at 4° C., before being separated from the MAPs (Microtubule Associated Proteins) by chromatography on a phosphocellulose P11 column (Whatman). The tubulin thus isolated is more than 95% pure. It is stored in a buffer known as RB/2 30% glycerol, the composition of which is 50 mM MES-NaOH [2-(N-morpholino)ethanesulfonic acid], pH 6.8; 0.25 mM MgCl2; 0.5 mM EGTA; 30% (v/v) glycerol, 0.2 mM GTP (guanosine 5′-triphosphate).
The polymerization of the tubulin into microtubules is monitored by turbidimetry as follows: the tubulin is adjusted to a concentration of 10 μm (1 mg/ml) in the RB/2 30% glycerol buffer, to which are added 1 mM GTP and 6 mM MgCl2. […] The increase in turbidity of the solution is monitored at 350 nm. […]

Take `COc1cc(OC)cc(N2CCN(C(=O)c3cn(CCO)cc3-c3ccccc3)CC2)c1`: the pIC50 with HCT116 cells was 7.94; in assay [1], 6.38.
